Assay results: patent publication US20220112194A1, “COMPOUNDS TARGETING PRMT5” (ALIGOS THERAPEUTICS, INC., priority 2020, published 2022)

Amino acid sequences for entries named in this document (tags omitted).
UniProt O14744, whole entry: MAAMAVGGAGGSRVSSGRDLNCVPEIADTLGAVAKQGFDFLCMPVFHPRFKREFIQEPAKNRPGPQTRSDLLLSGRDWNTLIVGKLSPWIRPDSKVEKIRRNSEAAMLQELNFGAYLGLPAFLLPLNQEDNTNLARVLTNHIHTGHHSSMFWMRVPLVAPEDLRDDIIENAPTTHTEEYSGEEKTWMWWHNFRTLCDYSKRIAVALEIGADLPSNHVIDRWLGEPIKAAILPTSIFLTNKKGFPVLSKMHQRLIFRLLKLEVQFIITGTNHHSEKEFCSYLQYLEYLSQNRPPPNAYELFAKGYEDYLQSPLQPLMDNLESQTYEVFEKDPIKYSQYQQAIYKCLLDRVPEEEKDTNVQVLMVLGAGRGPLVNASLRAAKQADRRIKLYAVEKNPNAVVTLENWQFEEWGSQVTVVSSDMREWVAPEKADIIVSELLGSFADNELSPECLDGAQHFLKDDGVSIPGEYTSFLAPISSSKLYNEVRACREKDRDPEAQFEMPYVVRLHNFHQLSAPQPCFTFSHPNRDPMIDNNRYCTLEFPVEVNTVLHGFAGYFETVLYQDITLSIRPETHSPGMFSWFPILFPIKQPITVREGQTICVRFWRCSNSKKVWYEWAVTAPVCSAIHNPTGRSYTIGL
UniProt Q9BQA1, whole entry partner: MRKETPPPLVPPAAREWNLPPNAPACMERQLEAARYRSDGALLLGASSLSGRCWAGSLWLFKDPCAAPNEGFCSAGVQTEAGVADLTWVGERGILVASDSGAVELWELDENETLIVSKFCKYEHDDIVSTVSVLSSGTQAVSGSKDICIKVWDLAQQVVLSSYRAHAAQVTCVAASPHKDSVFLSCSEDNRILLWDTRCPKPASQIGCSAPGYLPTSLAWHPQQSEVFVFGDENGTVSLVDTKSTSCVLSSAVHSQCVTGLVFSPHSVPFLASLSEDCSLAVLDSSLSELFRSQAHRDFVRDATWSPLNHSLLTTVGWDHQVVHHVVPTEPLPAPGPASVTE

Target: PRMT5/MEP50 (Homo sapiens, UniProt O14744)
Experiment: PRMT5/MEP50 enzyme inhibition assay, Assay 2 (384-well, MALDI mass spectrometry, SAM, histone H4 1-21 peptide)
Conditions: read-out: Assay 2 IC50; 1 μM SAM, 0.1 μM histone H4 1-21 peptide, 18-hour incubation at rt
Method: Compounds were tested for inhibition of methyltransferase activity in 384-well plate assay format using mass spectrometry technology. In this enzyme inhibition assay, compounds were tested in a 11-dose IC50 mode with 3-serial dilution, in duplicate, starting at 1, 10, or 100 μM. Reactions were carried out at 1 μM SAM and 0.1 μM histone H4 1-21 peptide as substrates for methyl transfer. Following an 18-hour incubation at rt, the reaction was stopped with 0.5% formic acid. Products of the reaction were captured while unreacted substrates were washed away, prior to MALDI mass spectrometry detection and analysis. Percent enzyme activity was calculated based on no inhibitor DMSO control as 100% activity. EC50 values were determined in GraphPad Prism 8 using the [inhibitor] vs. response—Variable slope (four parameters) function.
Compounds of Formula (I) show activity in this assay. A value of ‘A’ in the table below indicates an IC50 of <1 nM, a value of ‘B’ indicates an IC50≥1 nM to ≤100 nM, and a value of ‘C’ indicates an IC50 value of >100 nM.

IC50: < 1 nM
SMILES: COC[C@]1(CCc2cc(F)c3cc(Cl)c(N)nc3c2)C[C@@H](n2ccc3c(N)nccc32)[C@H](O)[C@@H]1O
